Experimental findings from publication PMC12154458, “High-Throughput Screens of Repurposing Hub and DOS Chemical Libraries Reveal Compounds with Novel and Potent Inhibitory Activity Against the Essential Non-Neuronal Acetylcholinesterase of Schistosoma mansoni (SmTAChE)” (International Journal of Molecular Sciences, 2025) are described below.

Sequences of proteins named here, by UniProt entry; tags and fusion partners are left off. Residues count along the entry.
UniProt P22303, 32-614 limits assumed: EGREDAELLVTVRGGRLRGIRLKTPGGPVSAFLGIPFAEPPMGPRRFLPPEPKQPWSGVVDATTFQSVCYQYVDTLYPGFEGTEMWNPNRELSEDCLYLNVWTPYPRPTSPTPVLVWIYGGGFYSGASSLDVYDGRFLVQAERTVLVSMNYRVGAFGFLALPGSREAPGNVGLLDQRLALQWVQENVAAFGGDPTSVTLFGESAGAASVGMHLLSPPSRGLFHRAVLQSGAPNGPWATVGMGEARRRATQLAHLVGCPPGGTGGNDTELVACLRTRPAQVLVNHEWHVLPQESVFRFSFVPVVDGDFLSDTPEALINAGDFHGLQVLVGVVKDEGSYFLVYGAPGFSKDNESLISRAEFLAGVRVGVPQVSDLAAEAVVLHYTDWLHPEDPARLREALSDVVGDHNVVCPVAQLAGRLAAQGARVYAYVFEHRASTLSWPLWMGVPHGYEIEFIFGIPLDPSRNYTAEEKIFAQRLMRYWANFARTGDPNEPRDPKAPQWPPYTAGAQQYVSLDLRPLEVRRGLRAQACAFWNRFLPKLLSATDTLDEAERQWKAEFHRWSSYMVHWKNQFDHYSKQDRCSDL

The target of the experiment is recombinant human acetylcholinesterase, rHsAChE (Homo sapiens, UniProt P22303). The note with it: dose response analysis of Drug Repurposing Hub hits against rHsAChE.

Consider `Cc1c(OCc2cccc(-c3ccc(C(=O)O)cc3)c2)cc2c(c1C)C(=O)C(C1CCCC1)C2` (stereo not shown), for which the “Data Mode (curve class), rHsAChE” value is given as “decreasing”. As for `COc1cccc(-n2nc(C(=O)O)cc2-c2ccc(C3CCCCC3)c(Cl)c2)c1`, the “Data Mode (curve class), rHsAChE” value was “decreasing”. Moreover, the 50% inhibitory concentration (IC50) (read-out: qAC50 (IC50), rHsAChE) came to 4.28 µM. Consider `CCCn1c(=O)[nH]c2nc(-c3ccc(S(=O)(=O)N4CCN(c5ccc(Cl)cc5)CC4)cc3)[nH]c2c1=O`, for which the “Data Mode (curve class), rHsAChE” value is “inactive”.
